## Measured affinities in a library of Ab-14 light chain variants

Values reported by Li et al. 2023, doi:10.1038/s41467-023-39022-2 (FLAb copy).

Antigen: PDVDLGDISGINAS, a 14-residue peptide of the SARS-CoV-2 spike HR2 region.

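Designed CDR sequences, proposed from the first random library and measured here. Group labels follow the data file (Ctrl: baseline library sampled from a position-specific scoring matrix, with some repeated check sequences; Rand: our label for a block that the file lists under HC and that is probably the random mutants of the ten best first-round binders; GP: Gaussian process model; HC: hill climbing; Gen: genetic algorithm; a sequence that several methods proposed may carry one label only). The scFvs were displayed on barcoded MATa yeast, the peptide on MATalpha yeast. Mating (16 h, 30 °C) was followed by selection of diploids and sequencing of their barcodes. Scores were corrected for input abundance and mapped to Kd with protein pairs of known affinity run in the same pool. There are six technical replicates.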

Ab-14 is the parent antibody, in scFv form: VH, then the linker GGGGSGGGGSGGGGS, then VL. The heavy chain is unchanged in all variants.
VH: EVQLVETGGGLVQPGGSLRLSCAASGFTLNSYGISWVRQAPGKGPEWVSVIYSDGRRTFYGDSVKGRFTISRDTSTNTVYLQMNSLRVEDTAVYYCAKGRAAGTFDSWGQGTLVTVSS
VL: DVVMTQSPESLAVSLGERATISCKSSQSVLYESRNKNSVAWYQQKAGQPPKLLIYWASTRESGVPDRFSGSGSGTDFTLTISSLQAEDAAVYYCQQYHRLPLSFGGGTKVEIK

Substitutions are numbered in sequence along the VL above, starting at 1 (not Kabat). This list holds designs with at most six substitutions. Values are apparent Kd, the geometric mean of the replicates that gave a signal; lower means stronger binding. A pair that was not seen in any replicate is written "no signal"; this usually means weak binding, but a binder can also be missed. Order: sorted from the lowest average up, undetected variants last. A sequence measured in both rounds can read differently, since the two assays cover different ranges.

* S25V/V29Y/S38A/W56N/T59Q [GP_Gen]: 200 pM (6 of 6 replicates; controls 0 of 18)
* S25L/S26Q/V29E/W56N/S62Q [GP_Gen]: 280 pM (6 of 6 replicates; controls 0 of 18)
* S25L/S26Q/V29F/W56D/E61C [GP_Gen]: 310 pM (6 of 6 replicates; controls 1 of 18)
* S25L/S26E/Y31Q/W56N [GP_Gen]: 330 pM (6 of 6 replicates; controls 0 of 18)
* S25L/S26E/Q27G/W56N [GP_Gen]: 630 pM (6 of 6 replicates; controls 2 of 18)
* S25V/N35M/W56D/E61C/S103Y [GP_HC]: 650 pM (6 of 6 replicates; controls 0 of 18)
* L30G/K36E/W56S [Ctrl]: 970 pM (6 of 6 replicates; controls 1 of 18)
* S25L/W56N/T59K/E61M [GP_Gen]: 1.0 nM (6 of 6 replicates; controls 1 of 18)
* V29Y/L30D/N37K/W56G [GP_HC]: 1.2 nM (6 of 6 replicates; controls 1 of 18)
* S33D/W56G [Ctrl]: 1.4 nM (6 of 6 replicates; controls 1 of 18)
* S28N/E32T/R34T/W56D/T59V [Ctrl]: 1.8 nM (6 of 6 replicates; controls 2 of 18)
* S25L/V29W/K36P/W56N [GP_Gen]: 2.1 nM (6 of 6 replicates; controls 2 of 18)
* V29F/N35Q/W56G/T59Q [GP_HC]: 2.2 nM (6 of 6 replicates; controls 0 of 18)
* S25F/Q27P/N35M/K36S/W56N [GP_HC]: 2.2 nM (6 of 6 replicates; controls 2 of 18)
* S25M/Q27D [Ctrl]: 3.1 nM (6 of 6 replicates; controls 0 of 18)
* S25L/S26Q/S28Q/V29W/W56S/S62E [GP_HC]: 3.5 nM (6 of 6 replicates; controls 2 of 18)
* Q27K/K36C/A57G [Ctrl]: 5.1 nM (6 of 6 replicates; controls 0 of 18)
* W56S/S62E [Ctrl]: 15 nM (6 of 6 replicates; controls 1 of 18)
* S25R/Y31D [Ctrl]: 19 nM (3 of 6 replicates; controls 0 of 18)
* S25H/S26R [Ctrl]: 35 nM (2 of 6 replicates; controls 1 of 18)
* L30P/T59L/S62R/P101S [Ctrl]: 54 nM (1 of 6 replicates; controls 0 of 18)
* S25L/L30P/W56E/T59Q [GP_Gen]: 59 nM (6 of 6 replicates; controls 0 of 18)
* A57S [Ctrl]: 280 nM (1 of 6 replicates; controls 0 of 18)
* R34F/Q96D [Ctrl]: 480 nM (2 of 6 replicates; controls 2 of 18)
* K24H [Ctrl]: 530 nM (2 of 6 replicates; controls 1 of 18)
* S25L/L30E/R99Y [Ctrl]: 1.1 µM (4 of 6 replicates; controls 1 of 18)
* Y31Q/E61S [Ctrl]: 2.3 µM (4 of 6 replicates; controls 1 of 18)
* K24V/W56S/Q96L/L100A [Ctrl]: no signal (0 of 6 replicates; controls 2 of 18)
* Q27P/Q95I/H98Q/R99K [Ctrl]: no signal (0 of 6 replicates; controls 0 of 18)
* S58K/Y97H [Ctrl]: no signal (0 of 6 replicates; controls 0 of 18)
* Q27I/V29Y/E32W/W56E/S58P [Rand]: no signal (0 of 6 replicates; controls 0 of 18)
* S25Y/N35R/T59I/Q96L [Ctrl]: no signal (0 of 6 replicates; controls 0 of 18)

Repeated from above, the 5 best binders with a signal in all replicates:

| changes | group | apparent Kd | replicates with signal | signal with controls |
|---|---|---|---|---|
| S25V/V29Y/S38A/W56N/T59Q | GP_Gen | 200 pM | 6/6 | 0/18 |
| S25L/S26Q/V29E/W56N/S62Q | GP_Gen | 280 pM | 6/6 | 0/18 |
| S25L/S26Q/V29F/W56D/E61C | GP_Gen | 310 pM | 6/6 | 1/18 |
| S25L/S26E/Y31Q/W56N | GP_Gen | 330 pM | 6/6 | 0/18 |
| S25L/S26E/Q27G/W56N | GP_Gen | 630 pM | 6/6 | 2/18 |

Of ten entries with the parent sequence, four were seen in most replicates (averages 2.2 nM to 240 nM), three in one and three in none, so single entries are noisy. Background: pairings of all light chain designs with three empty control strains gave a value in 4% of cases (median 430 nM, 5th percentile 38 nM). Values in that range, when seen in few replicates, are hard to tell from nonspecific mating. For each scFv, signals with the empty controls are counted beside the result. The authors averaged sequences with at least three values out of six and counted those with two or fewer as poor binders.